Curated experimental data: melting point values

Data: OPERA 2.9 data sets, kmansouri/OPERA on GitHub.

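The OPERA project collected these measurements from public sources as training and test data for property models. One number stands for a compound and property, with no spread given. Method and conditions are not stated for these values. Where a salt, mixture or single isomer is drawn, the source does not say that exactly this form was tested. Unmarked limits or estimates from the upstream databases cannot be ruled out.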

The melting point is given in degrees Celsius. The databases behind each value are named after "via".

MP (°C) | structure (SMILES) | via
110 | CC(C)=CCC[C@@H](C)[C@H]1CC[C@H]2C3=C(CC[C@]12C)[C@@]1(C)CC[C@H](O)C[C@@H]1CC3 | OCHEM
-69.5 | CC(=O)OCCOC(C)C | eChemPortal
243 | CN(C)C(=S)SCCCS(=O)(=O)[O-].[Na+] | eChemPortal
-52 | CC(O)C(F)(F)F (stereo not drawn) | QSARDB
235 | O=Cc1cc(O)c(O)c(Cl)c1 | OCHEM
179 | O=C(O)c1nc(-c2ccccc2)n(-c2ccccc2)n1 | OCHEM
131 | O=S(=O)(c1ccc(Cl)nc1)N1CCCCC1 | OCHEM
55 | ClCc1ncc(-c2ccc(Cl)cc2)o1 | OCHEM
115 | CCOc1ccc(S(=O)(=O)NN)cc1 | OCHEM
123 | COc1ccc2cc(CO)ccc2c1 | OCHEM
136 | COc1cccc(Nc2nnc(SCC(=O)O)s2)c1 | OCHEM
134 | O=C(O)c1coc(Br)c1 | OCHEM
90 | Cc1nn(-c2ccccc2)c(Cl)c1CO | OCHEM
121 | NC(=O)NCc1ccco1 | OCHEM
119 | O=C(CCl)Nc1ccc(OCc2ccccc2)cc1 | OCHEM
138 | N=C(CCN1CCCCC1)NO | OCHEM
74 | COc1cccc(NC(=O)CCl)c1 | OCHEM
69 | Cc1cc(C)c(C(=O)CCl)c(C)c1 | OCHEM
153 | O=C(O)C1(c2cccc(Br)c2)CCOCC1 | OCHEM
105 | COc1cc(NC(=O)CCl)cc(OC)c1OC | OCHEM
171 | Cc1cccc(NC(=S)NN)c1C | OCHEM
165 | CNC(=O)c1ccc(OC)c([N+](=O)[O-])c1 | eChemPortal
101 | O=C(O)CCN1C(=O)NC2(CCCCC2)C1=O | OCHEM
100 | Cc1ccccc1-c1cc(N)on1 | OCHEM
93 | CCOC(=O)c1[nH]c2ccccc2c1O | OCHEM
117 | O=c1[nH]nc(-c2cccs2)o1 | OCHEM
171 | Cc1nc(Cl)c2c(-c3ccccc3)csc2n1 | OCHEM
146 | CCOc1ccc(NS(=O)(=O)c2ccc(N)cc2)cc1 | OCHEM
113 | CC(=O)c1cccc(NC(=O)CCl)c1 | OCHEM
290 | O=C1CCCc2[nH]c(=O)c(C(=O)O)cc21 | OCHEM
159 | CN(C)C(=O)c1cc(N)ccc1Cl | OCHEM
110 | CC(=O)c1ccc(CC(=O)O)cc1 | OCHEM
109 | Cc1ccc(S(=O)(=O)CCC(=O)O)cc1 | OCHEM
122 | O=C(O)C1CCCN(S(=O)(=O)c2ccccc2)C1 (stereo not drawn) | OCHEM
93 | N#CCC(=O)NC1CCCC1 | OCHEM
170 | O=C1CC(=O)CC2(CCCCC2)C1 | OCHEM
161 | Oc1cn(-c2ccccc2)nn1 | OCHEM

The 3 highest values of MP among the entries above:

{"smiles": "O=C1CCCc2[nH]c(=O)c(C(=O)O)cc21", "MP (°C)": "290", "via": "OCHEM"}
{"smiles": "CN(C)C(=S)SCCCS(=O)(=O)[O-].[Na+]", "MP (°C)": "243", "via": "eChemPortal"}
{"smiles": "O=Cc1cc(O)c(O)c(Cl)c1", "MP (°C)": "235", "via": "OCHEM"}